Results taken from patent US20190076431A1, “SRC INHIBITOR TO BLOCK CELL SURFACE GRP78 EXPRESSION” (University of Southern California, priority 2016, published 2019).

Test system: csGRP78
Assay: Blocking of csGRP78 expression by SRC inhibitors (summary statement)
Type: cell-based
Conditions: clinically relevant dose

Cc1nc(Nc2ncc(C(=O)Nc3c(C)cccc3Cl)s2)cc(N2CCN(CCO)CC2)n1 [Dasatinib, dasatinib] was tested, and the csGRP78 expression was “can block csGRP78 expression at clinically relevant dose”.
